Among the data in US10844067B2, “Heterocyclic compounds as RET kinase inhibitors” (Cancer Research Technology Limited, priority 2016, dated 2020) are IC50 values, retold here.

Read-outs that look alike come from different tables or passages of the source.

Experiment [1] concerns BaF3 cell lines expressing KDR. Nature of the experiment: BaF3 cell assay, KDR (CellTiter-Glo viability). The conditions noted are these: Mus musculus, BaF3 cells expressing KDR, 48 hours. The experiment is classed as cell-based. In general terms: In ATP-based viability assays light output follows the ATP content of the culture.
The subject of experiment [2] is Non-modified BaF3 cells (WT). Nature of the experiment: BaF3 cell assay, non-modified (WT) cells with IL3.
In experiment [3] the test system is RET^V804M Cell. Nature of the experiment: BaF3 cell assay, RET^V804M (CellTiter-Glo viability). The experiment is classed as cell-based. The conditions noted are these: Mus musculus, RET^V804M cells, 48 hours.
The mark [4] stands for this setting: Mus musculus, BaF3, 48 h, read-out: BaF3 IC50, Non-modified BaF3 cells (WT) with IL3, 48 hours, CellTiter-Glo.

A word on the IC50: it is the midpoint of a concentration-inhibition curve. For `CS(=O)(=O)N1CCC(n2nc(-c3[nH]c4ccccc4c3Cl)c3c(N)ncnc32)CC1` [Example 4, 3-(3-Chloro-1H-indol-2-yl)-1-(1-methylsulfonyl-4-piperidyl)pyrazolo[3,4-d]pyrimidin-4-amine], the results for the 50% inhibitory concentration (IC50) in experiment [1] and in experiment [2] (setting [4]) were 6.94 µM and 7.74 µM, respectively.
As to `CC(C)(C)OC(=O)N[C@H]1CC[C@H](n2nc(-c3cc4cccnc4[nH]3)c3c(N)ncnc32)CC1` [Example 28, tert-Butyl (trans-4-(4-amino-3-(1H-pyrrolo[2,3-b]pyridin-2-yl)-1H-pyrazolo[3,4-d]pyrimidin-1-yl)cyclohexyl)carbamate], the IC50 in experiment [1] stood at 6.46 µM; in experiment [2] (read-out: BaF3 IC50, Non-modified BaF3 cells (WT) with IL3, 48 hours, CellTiter-Glo) it was 4.53 µM.
`Nc1ncnc2c1c(-c1cc3cccnc3[nH]1)nn2[C@H]1CC[C@H](NC(=O)C2CC2)CC1` [Example 36, N-(trans-4-(4-Amino-3-(1H-pyrrolo[2,3-b]pyridin-2-yl)-1H-pyrazolo[3,4-d]pyrimidin-1-yl)cyclohexyl)cyclopropanecarboxamide]: the results for the IC50 in experiment [1] and in experiment [2] (setting [4]) were greater than 10 µM and 4.08 µM, respectively.
For `CC(C)n1nc(-c2cc3cccnc3[nH]2)c2c(N)ncnc21` [Example 37, 1-Isopropyl-3-(1H-pyrrolo[2,3-b]pyridin-2-yl)pyrazolo[3,4-d]pyrimidin-4-amine], in that order: 1.37 µM and 4.01 µM.
For `CC(C)n1nc(-c2[nH]c3ncccc3c2Cl)c2c(N)ncnc21` [Example 55, 3-(3-Chloro-1H-pyrrolo[2,3-b]pyridin-2-yl)-1-isopropyl-1H-pyrazolo[3,4-d]pyrimidin-4-amine], in that order: 1.8 µM and 3.16 µM.
As to `Cn1nc(-c2[nH]c3ncccc3c2Cl)c2c(N)ncnc21` [Example 65, 3-(3-Chloro-1H-pyrrolo[2,3-b]pyridin-2-yl)-1-methyl-pyrazolo[3,4-d]pyrimidin-4-amine], the IC50 in experiment [3] was 3.85 µM; in experiment [2] (setting [4]), greater than 10 µM.
For `Nc1ncnc2c1c(-c1[nH]c3ncccc3c1Cl)nn2C1CCCCC1` [Example 67, 3-(3-Chloro-1H-pyrrolo[2,3-b]pyridin-2-yl)-1-cyclohexyl-pyrazolo[3,4-d]pyrimidin-4-amine], in that order: 0.335 µM and 3.16 µM.
As for `CN(C)C1CCN(CCn2nc(-c3[nH]c4ncccc4c3Cl)c3c(N)ncnc32)CC1` [Example 77, 3-(3-Chloro-1H-pyrrolo[2,3-b]pyridin-2-yl)-1-(2-(4-(dimethylamino)piperidin-1-yl)ethyl)-1H-pyrazolo[3,4-d]pyrimidin-4-amine], the half-inhibitory concentration (IC50) in experiment [1] and in experiment [2] (setting [4]) was greater than 10 µM each time.
Take `CC(C)(C)n1nc(-c2cc3ccc(C#N)nc3[nH]2)c2c(N)ncnc21` [Example 88, 2-(4-Amino-1-(tert-butyl)-1H-pyrazolo[3,4-d]pyrimidin-3-yl)-1H-pyrrolo[2,3-b]pyridine-6-carbonitrile]: the 50% inhibitory concentration (IC50) in experiment [2] (setting [4]) was greater than 10 µM.
